The values below come from PubChem BioAssay AID2716 (Broad Institute, 2010).

Structures are written as SMILES. The list shows a part of the results, in another mix than the full data. Active and inactive are the calls of the source.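 How the source made its calls: active means every valid replicate shows activation above 250% relative to neutral control wells; inactive means the rest, any valid replicate at or below 250%.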

The nature of the assay: restored growth of temperature-sensitive Mot1-301 yeast – S. cerevisiae, ATP luminescence, 38.5C, SUMOylation pathway inhibitor project, primary screen (AID 2716).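 Further: OY570 slx delta 5 strain wells were the positive control but not used for scaling.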 As to conditions: S. cerevisiae Mot1-301 growth rescue, at 18.8 µM, hits give high values, percent above DMSO median, 100 means doubled.
Take `Cc1cc(SC(NC(=O)c2ccc(F)cc2)C(Cl)(Cl)Cl)ncn1` (configuration not stated): the growth rescue is inactive: 8.97%. Take `CCOP(=O)(Nc1ccccc1)OCC`: the growth rescue was inactive: -4.09%.

Take `Cc1ccc(NP(=O)(Oc2ccccc2F)Oc2ccccc2F)nc1`: the growth rescue is inactive: -11.8%. For the compound `CN(C(=O)Cc1ccc(Cl)c(Cl)c1)[C@H]1CCCC[C@@H]1N1CCCC1`, the growth rescue was inactive: -0.55%. Consider `CC(=O)Nc1ccc([As](=O)(O)O)cc1`, for which the growth rescue was inactive: 4.91%. Regarding `O=C(O)c1ccccc1[As](=O)(O)O`, the growth rescue is inactive: 5.75%. As for `O=P(Nc1nc2ccc(Cl)cc2s1)(c1ccccc1)c1ccccc1`, the growth rescue was inactive: -8.86%. Take `CCN(N=Nc1nonc1N)c1nonc1N`: the growth rescue was inactive: 2.82%.

As for `Nc1cccc2ccc([As](=O)(O)O)cc12`, the growth rescue is inactive: 5.22%. On to `O=[N+]([O-])c1cc([N+](=O)[O-])c(CCN2CCOCC2)c([N+](=O)[O-])c1`, for which the growth rescue was inactive: 147%. The figure for `COc1ccccc1OP(=O)(Nc1ccc(C)cn1)Oc1ccccc1OC` is inactive: 137%; for `Cc1ccc(OP(=O)(Nc2nccs2)Oc2ccc(C)cc2)cc1` it is inactive: -14.2%.

For `CN1CCCC(OC(=O)C(c2ccccc2)c2ccccc2)C1` (configuration not stated), the growth rescue was inactive: 2.94%.

For `Clc1ccc(Cl)c(NC2=NCC(CBr)S2)c1` (configuration not stated), the growth rescue is inactive: 8.61%. The figure for `NC(=O)c1cc([N+](=O)[O-])cc([N+](=O)[O-])c1N` is inactive: 96.5%.

Turning to `CN(C(=O)Cc1ccc(Cl)c(Cl)c1)[C@H]1CCCC[C@H]1N1CCCC1`, the growth rescue was inactive: 4.68%.

On to `Cc1ccc(N/C(=N/P(=O)(N2CCOCC2)N2CCOCC2)N2CCOCC2)cc1`, for which the growth rescue was inactive: 5.85%. Turning to `Nc1cc(N)c2nonc2c1[N+](=O)[O-]`, the growth rescue is inactive: -15.4%. Consider `CC(C)CC(=O)NC(Sc1ccc(Cl)cc1)C(Cl)(Cl)Cl` (configuration not stated), for which the growth rescue is inactive: -6.85%.

As for `Oc1ccccc1CNc1ccccn1`, the growth rescue is inactive: -2.77%. Consider `O=C(NC(Sc1ccncn1)C(Cl)(Cl)Cl)c1ccccc1` (configuration not stated), for which the growth rescue was inactive: -0.451%. As for `Cc1c2non([O-])c-2c(C)[n+](=O)[n+]1[O-]`, the growth rescue is inactive: -17.3%. On to `CC(C)(C)C(=O)NC(Sc1ccccc1)C(Cl)(Cl)Cl` (configuration not stated), for which the growth rescue was inactive: -9.45%.

For the compound `O=P1(Nc2nc3ccc(Cl)cc3s2)COc2ccccc2O1` (configuration not stated), the growth rescue was inactive: 22.7%.

As to `CCOc1ccc(C2=NCC(CBr)S2)cc1` (configuration not stated), the growth rescue is inactive: 16.6%. Regarding `CC(=O)Nc1ccc([As](=O)(O)O)c(O)c1`, the growth rescue is inactive: 8.7%. For `CC(=O)Nc1ccc(Oc2c([N+](=O)[O-])cc([N+](=O)[O-])cc2[N+](=O)[O-])cc1`, the growth rescue was inactive: -1.16%. Consider `CC(=O)c1ccc(N2CC2c2ccncc2)cc1` (configuration not stated), for which the growth rescue is inactive: -9.08%.

In the case of `C[C@H]1OP(=O)(Oc2ccccc2)C[C@@H]2O[C@@H]21` (some centres not stated), the growth rescue is inactive: 9.07%. In the case of `C[C@@H]1C=CCP(=O)(Oc2ccccc2)O1` (some centres not stated), the growth rescue was inactive: 10%. The same measure for `CCNC(=S)/N=C(\N)N[N+](=O)[O-]`: inactive: -20.8%; for `O=C(NC1CCS(=O)(=O)C1)NP(=S)(Oc1ccccc1)Oc1ccccc1` (configuration not stated): inactive: 13.7%; for `c1ccc(-c2nn[nH]n2)c(-c2nn[nH]n2)c1`: inactive: -0.98%.

Take `CCOC(=O)NC(Sc1ccccc1)C(Cl)(Cl)Cl` (configuration not stated): the growth rescue is inactive: -8.36%.

In the case of `Cc1ccc(NP(=O)(Oc2cccc(C)c2)Oc2cccc(C)c2)nc1`, the growth rescue is inactive: -6.38%. In the case of `CC(NC(=O)COC(=O)C(O)(c1ccccc1)c1ccccc1)c1ccccc1` (configuration not stated), the growth rescue was inactive: 5.84%. The figure for `Cc1ccccc1OP(=O)(Nc1ccccn1)Oc1ccccc1C` is inactive: -0.919%; for `CN(C)C(=O)Oc1noc2ccccc12` it is inactive: 8.89%; for `COC(=O)c1cc2c(s1)N=C(c1ccccc1)N(C)P2(=O)N1CCOCC1` (configuration not stated) it is inactive: -16.6%. The same measure for `Cc1ccc(OP(=O)(Nc2ccccn2)Oc2ccc(C)cc2)cc1`: inactive: 129%. Turning to `CC(=O)NC(SC(=S)N(CC(C)C)CC(C)C)C(Cl)(Cl)Cl` (configuration not stated), the growth rescue is inactive: -5.48%. `O=C(OC1CN2CCC1CC2)c1ccccc1` (configuration not stated): the growth rescue is inactive: 30.1%. In the case of `CCC(=O)N1C2C3N(C(=O)CC)C1C1N(C(=O)CC)C(C(N1C(=O)CC)N3C(=O)CC)N2C(=O)CC`, the growth rescue was inactive: 5.09%. Turning to `O=P(Nc1nc2ccccc2s1)(c1ccccc1)c1ccccc1`, the growth rescue was inactive: -14.5%.

Turning to `C[C@H]1OP(=O)(Oc2ccccc2)[C@H](O)[C@H](O)[C@H]1N=[N+]=[N-]` (some centres not stated), the growth rescue is inactive: 26%.

With `O=P(Nc1ccccn1)(c1ccc(Br)cc1)c1ccc(Br)cc1`, the growth rescue is inactive: 285%.

`CN(C)C1(CNC(=O)c2ccc(Cl)c(S(N)(=O)=O)c2)CCCCC1`: the growth rescue was inactive: 63.1%.

In the case of `C(Cc1nn[nH]n1)Cc1nn[nH]n1`, the growth rescue is inactive: -17.8%.

As for `Nc1ccc([As](=O)(O)c2ccc([N+](=O)[O-])cc2)cc1`, the growth rescue was inactive: 8.73%. `O=C(OC1CN2CCC1CC2)c1cccc(Cl)c1` (configuration not stated): the growth rescue was inactive: 7.34%. Take `O=[N+]([O-])c1ccc(O)c(/C=N/Nc2ccc([N+](=O)[O-])cc2[N+](=O)[O-])c1`: the growth rescue was inactive: 62.5%.

As to `O=[N+]([O-])c1ncn(CCn2cnc([N+](=O)[O-])n2)n1`, the growth rescue is inactive: 2.48%. On to `CC(=O)NC(SC(=S)N(C)C)C(Cl)(Cl)Cl` (configuration not stated), for which the growth rescue was inactive: -14.7%. Consider `O=[As](O)(c1ccccc1)c1ccc(O)cc1`, for which the growth rescue was inactive: -21%. On to `c1nnnn1CCn1cnnn1`, for which the growth rescue was inactive: 188%. The same measure for `CC(C)C(=O)NC(Sc1ccccc1)C(Cl)(Cl)Cl` (configuration not stated): inactive: -18.4%; for `O=P(Nc1nccs1)(c1ccccc1)c1ccccc1`: inactive: -0.0125%.
